In assay [1] the target is ATP-binding cassette sub-family C member 2 (Homo sapiens, UniProt Q92887).
Assay [2] concerns the target ATP-binding cassette sub-family C member 3 (Homo sapiens, UniProt O15438). The assay is classed as ADME, cell-based.
Assay [3] deals with Bile salt export pump (Homo sapiens, UniProt O95342). The assay is classed as ADME, cell-based.

Sequences of proteins named here, by UniProt entry; tags and fusion partners are left off. A change or cut given only in a name is not applied to a line headed by its entry.
UniProt Q92887: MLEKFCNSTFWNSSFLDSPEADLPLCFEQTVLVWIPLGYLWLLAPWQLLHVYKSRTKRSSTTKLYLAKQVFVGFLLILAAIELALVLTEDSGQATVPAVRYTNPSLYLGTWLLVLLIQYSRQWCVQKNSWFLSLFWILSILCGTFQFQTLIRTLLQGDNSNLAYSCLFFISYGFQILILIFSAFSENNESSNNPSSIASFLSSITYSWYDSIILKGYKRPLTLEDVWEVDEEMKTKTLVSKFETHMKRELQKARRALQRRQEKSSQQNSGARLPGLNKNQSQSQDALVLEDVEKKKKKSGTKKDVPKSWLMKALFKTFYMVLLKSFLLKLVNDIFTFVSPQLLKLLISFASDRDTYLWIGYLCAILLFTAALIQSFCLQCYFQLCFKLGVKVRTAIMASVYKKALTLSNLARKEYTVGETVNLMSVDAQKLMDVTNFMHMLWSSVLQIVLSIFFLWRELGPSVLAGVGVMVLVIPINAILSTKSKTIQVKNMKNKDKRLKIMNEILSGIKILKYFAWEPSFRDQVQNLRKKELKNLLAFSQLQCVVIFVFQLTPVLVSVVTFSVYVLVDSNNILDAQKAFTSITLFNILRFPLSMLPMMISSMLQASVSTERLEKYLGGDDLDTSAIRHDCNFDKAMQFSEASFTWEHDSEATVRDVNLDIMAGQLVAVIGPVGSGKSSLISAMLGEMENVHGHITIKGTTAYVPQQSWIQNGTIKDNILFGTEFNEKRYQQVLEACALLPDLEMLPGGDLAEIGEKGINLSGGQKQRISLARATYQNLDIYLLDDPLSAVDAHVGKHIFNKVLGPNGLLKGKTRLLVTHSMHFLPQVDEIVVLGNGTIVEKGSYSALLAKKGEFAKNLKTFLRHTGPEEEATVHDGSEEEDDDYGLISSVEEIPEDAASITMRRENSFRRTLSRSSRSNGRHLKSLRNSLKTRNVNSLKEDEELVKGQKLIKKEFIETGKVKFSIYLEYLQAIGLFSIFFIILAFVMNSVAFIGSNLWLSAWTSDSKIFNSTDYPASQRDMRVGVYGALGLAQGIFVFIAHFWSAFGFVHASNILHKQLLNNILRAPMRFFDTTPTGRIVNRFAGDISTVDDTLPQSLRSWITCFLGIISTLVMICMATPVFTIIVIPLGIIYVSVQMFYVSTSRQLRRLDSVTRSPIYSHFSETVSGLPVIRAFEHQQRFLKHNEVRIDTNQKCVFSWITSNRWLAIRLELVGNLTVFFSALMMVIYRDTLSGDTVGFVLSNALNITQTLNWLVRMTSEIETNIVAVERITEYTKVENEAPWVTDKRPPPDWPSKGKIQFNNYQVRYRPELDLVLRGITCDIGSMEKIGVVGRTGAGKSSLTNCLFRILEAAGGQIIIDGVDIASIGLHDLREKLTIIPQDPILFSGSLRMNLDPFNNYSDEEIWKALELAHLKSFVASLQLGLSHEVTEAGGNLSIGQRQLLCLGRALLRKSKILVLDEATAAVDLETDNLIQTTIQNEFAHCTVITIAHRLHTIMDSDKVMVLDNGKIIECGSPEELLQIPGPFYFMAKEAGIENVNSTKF
UniProt O15438: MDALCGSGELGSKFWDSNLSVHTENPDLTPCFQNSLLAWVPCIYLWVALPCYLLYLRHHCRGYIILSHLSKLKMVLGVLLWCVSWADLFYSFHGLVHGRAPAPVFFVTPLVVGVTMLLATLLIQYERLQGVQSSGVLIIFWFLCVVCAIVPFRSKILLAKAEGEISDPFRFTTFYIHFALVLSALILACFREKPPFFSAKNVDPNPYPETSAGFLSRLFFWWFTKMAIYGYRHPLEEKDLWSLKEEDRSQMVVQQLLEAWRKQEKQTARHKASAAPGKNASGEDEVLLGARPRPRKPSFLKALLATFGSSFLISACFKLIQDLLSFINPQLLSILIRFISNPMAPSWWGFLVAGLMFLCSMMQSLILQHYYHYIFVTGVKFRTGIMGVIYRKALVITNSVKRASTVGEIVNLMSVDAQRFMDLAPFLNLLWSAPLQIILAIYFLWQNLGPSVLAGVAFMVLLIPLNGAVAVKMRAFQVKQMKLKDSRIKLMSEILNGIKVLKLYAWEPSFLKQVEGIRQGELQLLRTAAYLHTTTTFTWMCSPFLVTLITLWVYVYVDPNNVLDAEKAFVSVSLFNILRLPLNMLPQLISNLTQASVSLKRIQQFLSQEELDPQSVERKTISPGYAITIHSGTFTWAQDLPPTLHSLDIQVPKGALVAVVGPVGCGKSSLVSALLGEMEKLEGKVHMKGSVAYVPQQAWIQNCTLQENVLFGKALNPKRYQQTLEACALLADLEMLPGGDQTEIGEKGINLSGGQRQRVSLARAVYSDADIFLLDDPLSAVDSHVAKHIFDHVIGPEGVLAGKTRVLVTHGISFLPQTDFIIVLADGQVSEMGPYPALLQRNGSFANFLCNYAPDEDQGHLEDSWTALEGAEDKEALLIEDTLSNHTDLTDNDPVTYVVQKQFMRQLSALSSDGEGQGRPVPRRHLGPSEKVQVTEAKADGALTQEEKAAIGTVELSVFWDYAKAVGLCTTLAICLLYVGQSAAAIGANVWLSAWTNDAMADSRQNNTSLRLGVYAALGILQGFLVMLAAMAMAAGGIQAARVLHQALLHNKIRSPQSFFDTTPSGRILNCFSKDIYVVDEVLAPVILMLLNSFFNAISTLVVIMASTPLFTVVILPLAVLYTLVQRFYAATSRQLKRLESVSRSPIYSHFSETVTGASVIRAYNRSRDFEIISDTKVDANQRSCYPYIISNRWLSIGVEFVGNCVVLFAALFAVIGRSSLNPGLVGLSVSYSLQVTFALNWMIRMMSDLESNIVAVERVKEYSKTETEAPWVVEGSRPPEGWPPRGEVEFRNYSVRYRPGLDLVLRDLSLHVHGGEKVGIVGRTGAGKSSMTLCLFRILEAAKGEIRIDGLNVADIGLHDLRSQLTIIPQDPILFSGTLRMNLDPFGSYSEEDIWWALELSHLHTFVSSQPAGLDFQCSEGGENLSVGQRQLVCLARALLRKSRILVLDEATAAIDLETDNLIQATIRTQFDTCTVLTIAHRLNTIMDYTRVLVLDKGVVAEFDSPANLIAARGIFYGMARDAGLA
UniProt O95342, whole entry: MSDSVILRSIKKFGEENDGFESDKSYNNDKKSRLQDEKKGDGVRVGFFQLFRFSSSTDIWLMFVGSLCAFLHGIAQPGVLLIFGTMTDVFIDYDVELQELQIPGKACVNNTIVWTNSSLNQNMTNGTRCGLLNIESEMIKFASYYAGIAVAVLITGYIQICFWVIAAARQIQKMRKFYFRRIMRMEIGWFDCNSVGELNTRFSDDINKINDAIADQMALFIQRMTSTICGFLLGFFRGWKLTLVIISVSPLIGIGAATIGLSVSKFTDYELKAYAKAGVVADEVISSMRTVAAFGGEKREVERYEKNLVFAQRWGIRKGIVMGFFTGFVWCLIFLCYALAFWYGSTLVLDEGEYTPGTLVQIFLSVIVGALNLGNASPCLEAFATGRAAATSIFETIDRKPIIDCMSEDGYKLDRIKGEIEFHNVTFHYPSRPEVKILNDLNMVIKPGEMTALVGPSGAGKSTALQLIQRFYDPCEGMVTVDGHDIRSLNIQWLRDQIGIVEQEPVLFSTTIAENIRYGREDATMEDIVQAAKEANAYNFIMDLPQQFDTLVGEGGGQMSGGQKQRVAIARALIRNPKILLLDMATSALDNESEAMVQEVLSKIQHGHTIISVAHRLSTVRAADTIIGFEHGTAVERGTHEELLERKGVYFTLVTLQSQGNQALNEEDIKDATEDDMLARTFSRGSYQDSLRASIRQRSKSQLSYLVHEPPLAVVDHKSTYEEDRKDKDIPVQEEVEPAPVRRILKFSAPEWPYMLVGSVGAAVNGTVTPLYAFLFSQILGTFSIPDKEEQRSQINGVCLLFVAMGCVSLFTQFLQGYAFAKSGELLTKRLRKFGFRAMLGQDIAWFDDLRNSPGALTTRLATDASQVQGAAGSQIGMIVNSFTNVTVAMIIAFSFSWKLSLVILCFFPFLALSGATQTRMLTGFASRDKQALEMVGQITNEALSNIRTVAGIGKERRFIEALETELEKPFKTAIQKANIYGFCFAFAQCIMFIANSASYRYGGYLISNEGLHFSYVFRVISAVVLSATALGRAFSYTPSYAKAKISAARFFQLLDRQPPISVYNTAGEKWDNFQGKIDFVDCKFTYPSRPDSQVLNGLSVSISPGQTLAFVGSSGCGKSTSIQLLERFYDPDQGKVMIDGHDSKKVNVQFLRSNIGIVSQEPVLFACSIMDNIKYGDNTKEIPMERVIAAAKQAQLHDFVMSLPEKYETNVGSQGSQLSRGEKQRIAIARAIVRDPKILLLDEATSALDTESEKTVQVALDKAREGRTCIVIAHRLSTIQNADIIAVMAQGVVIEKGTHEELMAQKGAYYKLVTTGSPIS

The structures appear in SMILES notation.

`C[C@](N)(Cc1ccc(O)c(O)c1)C(=O)O`: the IC50 (usually the concentration that inhibits the measured activity by half) in assay [1] turned out to be 64.2 µM.
Consider `Cn1c(=O)c2c(ncn2C)n(C)c1=O` [CAFFEINE], for which the IC50 in assay [2] was greater than 133 µM.
With `CCN(CC)CC(=O)Nc1c(C)cccc1C` [LIDOCAINE], the IC50 in assay [3] was greater than 133 µM.

Values taken from ChEMBL document CHEMBL4028801, “A multifactorial approach to hepatobiliary transporter assessment enables improved therapeutic compound development” (Toxicol Sci, 2013).
